Literature values as cited in patent publication US20220125837A1, “METHODS FOR CONTROLLED ELIMINATION OF THERAPEUTIC CELLS” (Bellicum Pharmaceuticals, Inc., priority 2014, published 2022).
pEC50: −log10 of the molar value.

Sequences of proteins named here, by UniProt entry; tags and fusion partners are left off. A change or cut given only in a name is not applied to a line headed by its entry.
UniProt P62942: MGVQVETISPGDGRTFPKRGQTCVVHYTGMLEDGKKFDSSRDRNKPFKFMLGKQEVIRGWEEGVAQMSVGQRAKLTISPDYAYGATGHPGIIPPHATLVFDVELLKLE

Legend:
[1] = target: wt FRB (K2095 T2098 W2101) (Homo sapiens, UniProt P42345+P62942); conditions: cited from earlier work
[2] = target: FRB-KLW (Homo sapiens, UniProt P42345+P62942, T2098L); conditions: cited from earlier work

S-o,p-dimethoxyphenyl (DMOP)-rapamycin
pEC50 [1]: ~6.00 | pEC50 [2]: ~8.30
